Measured values published in patent US5919765A, “Inhibitors of factor XA” (COR Therapeutics, Inc., priority 1995, dated 1999).

Target: T1, thrombin (Homo sapiens, UniProt P00734)
T1 construct: The formation of thrombin is the result of the proteolytic cleavage of its precursor prothrombin
Assay: Thrombin amidolytic assay (chromogenic substrate Chromozym TH)
Type: biochemical
Details: read-out: Inhibitory Activity (IC50) Thrombin

C[C@@H](NC(=O)[C@@H](CCCNC(=N)N)NC(=O)OC(C)(C)C)C(=O)N[C@H](C=O)CCCNC(=N)N [Boc--D--Arg--D--Ala--Arg--H, Boc-D-Arg-D-Ala-Arg--H]
IC50: > 10 µM
